Reference: the supplement of paper PMC5998384

Experiments:
[1] = tested on: HeLa Kyoto; assay: melting temperature (median over replicates), in situ; higher = more thermally stable
[2] = tested on: HeLa Kyoto; assay: thermal stability score vs G1/S (z-score of summed log2 fold changes over temperatures); higher = more thermally stable than in G1/S
[3] = tested on: HeLa Kyoto; assay: solubility change mitosis vs G1/S (difference of NP-40 vs SDS log2 ratios) (log2 ratio difference); higher = more soluble in mitosis
[4] = tested on: HeLa Kyoto; assay: solubility in G1/S (NP-40 vs SDS abundance) (log2 ratio); higher = more soluble; details: cell cycle stage: G1/S
[5] = cell cycle stage: early G1 (4.5 h after nocodazole release)
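For melting temperature (median over replicates), in situ in this document: HeLa Kyoto cells synchronized by double thymidine or nocodazole block, proteins quantified by TMT10plex mass spectrometry, three independent biological replicates.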
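For solubility change mitosis vs G1/S (difference of NP-40 vs SDS log2 ratios) in this document: synchronized HeLa Kyoto cells (double thymidine block for G1/S, nocodazole release for mitosis), protein amounts in NP-40 versus SDS lysates quantified by mass spectrometry, three biological replicates.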
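For solubility in G1/S (NP-40 vs SDS abundance) in this document: HeLa Kyoto cells arrested at G1/S by double thymidine block, proteins quantified by TMT10plex mass spectrometry in mild NP-40 versus SDS extracts, three biological replicates.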
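For thermal stability score vs G1/S (z-score of summed log2 fold changes over temperatures) in this document: synchronized HeLa Kyoto cells, proteins quantified by TMT10plex mass spectrometry, three biological replicates, mitosis taken 0.5 h after nocodazole release, G1/S directly after double thymidine block.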

Sequence | melting temperature ([1]; cell cycle stage: G1/S) | melting temperature ([1]; cell cycle stage: mitosis) | thermal stability score [2, 5] | thermal stability score ([2]; cell cycle stage: mitosis) | solubility change mitosis (log2) [3] | solubility in G1/S (log2) [4]
MKETDREAVATAVQRVAGMLQRPDQLDKVEQYRRREARKKASVEARLKAAIQSQLDGVRTGLSQLHNALNDVKDIQQSLADVSKDWRQSINTIESLKDVKDAVVQHSQLAAAVENLKNIFSVPEIVRETQDLIEQGALLQAHRKLMDLECSRDGLMYEQYRMDSGNTRDMTLIHGYFGSTQGLSDELAKQLWMVLQRSLVTVRRDPTLLVSVVRIIEREEKIDRRILDRKKQTGFVPPGRPKNWKEKMFTILERTVTTRIEGTQADTRESDKMWLVRHLEIIRKYVLDDLIVAKNLMVQCFPPHYEIFKNLLNMYHQALSTRMQDLASEDLEANEIVSLLTWVLNTYTSTEMMRNVELAPEVDVGTLEPLLSPHVVSELLDTYMSTLTSNIIAWLRKALETDKKDWVKETEPEADQDGYYQTTLPAIVFQMFEQNLQVAAQISEDLKTKVLVLCLQQMNSFLSRYKDEAQLYKEEHLRNRQHPHCYVQYMIAIINNCQTFKESIVSLKRKYLKNEVEEGVSPSQPSMDGILDAIAKEGCSGLLEEVFLDLEQHLNELMTKKWLLGSNAVDIICVTVEDYFNDFAKIKKPYKKRMTAEAHRRVVVEYLRAVMQKRISFRSPEERKEGAEKMVREAEQLRFLFRKLASGFGEDVDGYCDTIVAVAEVIKLTDPSLLYLEVSTLVSKYPDIRDDHIGALLAVRGDASRDMKQTIMETLEQGPAQASPSYVPLFKDIVVPSLNVAKLLK [EXOC3] | 49.5 °C | 49.6 °C | 0.262 | 0.647 | -0.149 | 0.114
MPPKRNEKYKLPIPFPEGKVLDDMEGNQWVLGKKIGSGGFGLIYLAFPTNKPEKDARHVVKVEYQENGPLFSELKFYQRVAKKDCIKKWIERKQLDYLGIPLFYGSGLTEFKGRSYRFMVMERLGIDLQKISGQNGTFKKSTVLQLGIRMLDVLEYIHENEYVHGDIKAANLLLGYKNPDQVYLADYGLSYRYCPNGNHKQYQENPRKGHNGTIEFTSLDAHKGVALSRRSDVEILGYCMLRWLCGKLPWEQNLKDPVAVQTAKTNLLDELPQSVLKWAPSGSSCCEIAQFLVCAHSLAYDEKPNYQALKKILNPHGIPLGPLDFSTKGQSINVHTPNSQKVDSQKAATKQVNKAHNRLIEKKVHSERSAESCATWKVQKEEKLIGLMNNEAAQESTRRRQKYQESQEPLNEVNSFPQKISYTQFPNSFYEPHQDFTSPDIFKKSRSPSWYKYTSTVSTGITDLESSTGLWPTISQFTLSEETNADVYYYRIIIPVLLMLVFLALFFL [VRK2] | 51.1 °C | 51 °C | 0.552 | -0.127 | 0.257 | -0.364
MRAEGLGGLERFCSPGKGRGLRALQPFQVGDLLFSCPAYAYVLTVNERGNHCEYCFTRKEGLSKCGRCKQAFYCNVECQKEDWPMHKLECSPMVVFGENWNPSETVRLTARILAKQKIHPERTPSEKLLAVKEFESHLDKLDNEKKDLIQSDIAALHHFYSKHLGFPDNDSLVVLFAQVNCNGFTIEDEELSHLGSAIFPDVALMNHSCCPNVIVTYKGTLAEVRAVQEIKPGEEVFTSYIDLLYPTEDRNDRLRDSYFFTCECQECTTKDKDKAKVEIRKLSDPPKAEAIRDMVRYARNVIEEFRRAKHYKSPSELLEICELSQEKMSSVFEDSNVYMLHMMYQAMGVCLYMQDWEGALQYGQKIIKPYSKHYPLYSLNVASMWLKLGRLYMGLEHKAAGEKALKKAIAIMEVAHGKDHPYISEIKQEIESH [SMYD2] | 48.9 °C | 49.8 °C | 0.924 | 1.13 | -0.134 | -0.0483
MSDVAIVKEGWLHKRGEYIKTWRPRYFLLKNDGTFIGYKERPQDVDQREAPLNNFSVAQCQLMKTERPRPNTFIIRCLQWTTVIERTFHVETPEEREEWTTAIQTVADGLKKQEEEEMDFRSGSPSDNSGAEEMEVSLAKPKHRVTMNEFEYLKLLGKGTFGKVILVKEKATGRYYAMKILKKEVIVAKDEVAHTLTENRVLQNSRHPFLTALKYSFQTHDRLCFVMEYANGGELFFHLSRERVFSEDRARFYGAEIVSALDYLHSEKNVVYRDLKLENLMLDKDGHIKITDFGLCKEGIKDGATMKTFCGTPEYLAPEVLEDNDYGRAVDWWGLGVVMYEMMCGRLPFYNQDHEKLFELILMEEIRFPRTLGPEAKSLLSGLLKKDPKQRLGGGSEDAKEIMQHRFFAGIVWQHVYEKKLSPPFKPQVTSETDTRYFDEEFTAQMITITPPDQDDSMECVDSERRPHFPQFSYSASGTA [AKT1] | 50.6 °C | 49.9 °C | 1.05 | 0.255 | -0.0505 | -0.0128
MVRSGNKAAVVLCMDVGFTMSNSIPGIESPFEQAKKVITMFVQRQVFAENKDEIALVLFGTDGTDNPLSGGDQYQNITVHRHLMLPDFDLLEDIESKIQPGSQQADFLDALIVSMDVIQHETIGKKFEKRHIEIFTDLSSRFSKSQLDIIIHSLKKCDISLQFFLPFSLGKEDGSGDRGDGPFRLGGHGPSFPLKGITEQQKEGLEIVKMVMISLEGEDGLDEIYSFSESLRKLCVFKKIERHSIHWPCRLTIGSNLSIRIAAYKSILQERVKKTWTVVDAKTLKKEDIQKETVYCLNDDDETEVLKEDIIQGFRYGSDIVPFSKVDEEQMKYKSEGKCFSVLGFCKSSQVQRRFFMGNQVLKVFAARDDEAAAVALSSLIHALDDLDMVAIVRYAYDKRANPQVGVAFPHIKHNYECLVYVQLPFMEDLRQYMFSSLKNSKKYAPTEAQLNAVDALIDSMSLAKKDEKTDTLEDLFPTTKIPNPRFQRLFQCLLHRALHPREPLPPIQQHIWNMLNPPAEVTTKSQIPLSKIKTLFPLIEAKKKDQVTAQEIFQDNHEDGPTAKKLKTEQGGAHFSVSSLAEGSVTSVGSVNPAENFRVLVKQKKASFEEASNQLINHIEQFLDTNETPYFMKSIDCIRAFREEAIKFSEEQRFNNFLKALQEKVEIKQLNHFWEIVVQDGITLITKEEASGSSVTAEEAKKFLAPKDKPSGDTAAVFEEGGDVDDLLDMI [XRCC5] | 46.7 °C | 48.1 °C | 6.95 | 12.5 | -0.096 | 0.0358
